Binding of CDR-mutated scFvs to a peptide of the spike HR2 region

The measurements come from Li et al. 2023 (doi:10.1038/s41467-023-39022-2) through the FLAb antibody collection.

Target peptide (SARS-CoV-2 spike, HR2 region): PDVDLGDISGINAS

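The starting antibody came from a phage panning campaign against this peptide. The variants were designed computationally from a first round of random CDR variants and then made and measured. Several design methods are mixed in this list. Affinity was read by AlphaSeq, a pooled yeast mating assay with surface-displayed partners. The frequency of each diploid, read from paired DNA barcodes, reflects how well the two displayed proteins bind. A regression on co-assayed BCL2-family reference pairs converts the normalised counts of each replicate to an apparent Kd. Mating was done six times.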

Ab-14 is the parent antibody, in scFv form: VH, then a 15-residue (Gly4Ser)3 linker, then VL. The light chain is unchanged in all variants.
VH: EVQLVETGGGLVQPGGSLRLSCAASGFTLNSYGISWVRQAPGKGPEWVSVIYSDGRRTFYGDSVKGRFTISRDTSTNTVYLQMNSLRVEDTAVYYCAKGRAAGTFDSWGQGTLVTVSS
VL: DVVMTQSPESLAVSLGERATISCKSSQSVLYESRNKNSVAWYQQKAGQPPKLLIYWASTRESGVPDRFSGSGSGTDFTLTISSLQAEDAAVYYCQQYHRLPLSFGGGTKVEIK

Each variant is given by its three heavy chain CDRs, as the data file delimits them; those of the parent are GFTLNSYGIS, VIYSDGRRTFYGDSVK, GRAAGTFDS. The Kd shown is the geometric mean over detected replicates; a lower Kd is a better binder. "nd" marks a missing value. The strain was present, yet no cells mated with the target were sequenced in any replicate, which points to weak or no binding. In the paper, a design with two or fewer of six values counts as a poor binder. The parent sequence was in this pool as ten entries: three were never detected, three once, and four in most replicates, with averages from 2.2 nM to 240 nM. The range of this assay differs from that of the first round, and the authors advise against merging the two. Three control strains display no target. For all heavy chain designs, 1% of the pairings with them gave a signal, with a median of 120 nM and one signal in twenty below 7.0 nM, so weak values seen in few replicates may be background.

CDR-H1,CDR-H2,CDR-H3,Kd,replicates with signal
GFDLNEYGIS,VIYADGRRTFYSDSVK,GGNAGTFDS,260 pM,6 of 6
GFTLNEYGIS,VIYSDGRRTFYGDSVK,GRAAGTFGQ,5.7 nM,6 of 6
GFNLNSYGIS,VIYSDGRRTFYADSVK,GNAAGTFDS,5.0 nM,5 of 6
GFDLNEYGIS,VIYADGMRTAYTDSVK,GNQAGTFDS,4.4 nM,6 of 6
GFDLNEYGIS,VIYADGRRTFYADSVK,GNNAGTFDK,600 pM,6 of 6
GFELNSYGIS,VIYSDGQRTFYVDSVK,GRTAGTFDS,5.0 nM,1 of 6
GFDLDEYGIS,VIYADGRRTYYQDSVK,GQAAGTFDQ,230 pM,6 of 6
GFDLNEYGIS,VIYADGVRTAYTDSVK,GQNAGTFDI,1.1 nM,6 of 6
EFDLNDYGIS,VIYADGLRTAYVTNFK,GINAGTFTS,nd,0 of 6
GATLNSYGIS,VIYADGERTFYGDSVK,GRAAGTFDS,10 nM,6 of 6
GFTLNSYGIS,VIYSDGVRTFYGDSVK,GRAYGTFDS,nd,0 of 6
GFELNSYGIS,VIYSDGRRTFYSDSVK,GRQAGTFDT,1.2 nM,1 of 6
GFDLNEYGIS,VIYADGSRTAYADSVK,GGNAGTFDM,1.6 nM,6 of 6
GFDLNEYGIS,VIYADGKRKAYADSVK,GEVAGTFDV,220 pM,6 of 6
GFDLNEYGIS,VIYADGRRTAYADSVK,GHNAGTFDV,160 pM,6 of 6
GFDLNSYGIS,VIYSDGRRTFYIDSVK,GWAAGTFDA,4.0 nM,6 of 6
GFDLNEYGIS,VIYADGQRSFYADSVK,GQLAGTFDV,160 pM,6 of 6
GFSIDEYGIS,VIYADGVRTAVDPSVK,GQMAAFFDE,nd,0 of 6
GVTLNEYGIS,VIYSDGRRTFYGDSVK,GRAAVTFDQ,20 nM,1 of 6
GFTLNSYGIS,VIYSDGLRTFYIDSVK,GRWASTFDS,nd,0 of 6
GFTLNDYGIS,VIYSDGRRTFYGDSVK,GWTAGTFWS,nd,0 of 6
GFDLNEYGIS,VIYADGMRTAYADNVK,GNVAGTFDT,390 pM,6 of 6
GNTLNSYGIS,VIYSDGRRTFYGQSVW,TRAAGTFDS,130 nM,1 of 6
GFTLNQYGIS,VIMSDGRRTFYSDSVK,GRAAGFFDS,76 nM,1 of 6
GFGLEEYGIS,VIYADGMRTFYAEKVK,GNFDLQEGY,nd,0 of 6
GFDLNEYGIS,VIYADGMRTAYSDNVK,GETAGTFDI,420 pM,6 of 6
GFTLNDPSIS,VIYADGRRTFYGDSVK,GRAAGTNKS,nd,0 of 6
GFDLNEYGIS,VIYADGQRTFYSDSVK,GQNAGTFDV,250 pM,6 of 6
GFWLNMYGIS,VIYSDGRRTAYGDSVK,GRQAGTFDS,nd,0 of 6
MFDLNSYGIS,VIYSDGRRTFYGDSVK,GREAGTFDV,3.6 nM,2 of 6
GFSLNDYGIS,VIYSDGRRTFYTDSVK,GRAAGTFIS,38 nM,2 of 6
GFTLNSYGIS,VIYSDGRRTSYGDSVK,GELAGTFDS,50 nM,5 of 6
GFNLNEYGIS,VIYADGRRTFYADSVK,GQVAGTFDI,260 pM,6 of 6

The remaining entries, values ahead:

Kd,replicates with signal,CDR-H1,CDR-H2,CDR-H3
15 nM,5 of 6,GFTLNSYGIS,VIYSDGRRTFYSDSVK,GALAGTFDS
nd,0 of 6,KFTLNDYGIS,VIYSDGRRTFYDDSVK,GREAHTVDS
nd,0 of 6,GFTLNSYGTS,VIYSDGRRTFYGDSVK,GRLAGTFDV
28 nM,1 of 6,GFTLEEYGIS,VIYSDGRRTFYGDSVK,GRAAGTFTS
nd,0 of 6,GFGLNSYGIS,VIYSDGRRTFYGDSVK,GRAAKTFDS
120 pM,6 of 6,GFNLNEYGIS,VIYADGMRTAYTDSVK,GETAGTFDN
220 pM,6 of 6,GFDLNEYGIS,VIYADGRRTFYADSVK,GSVAGTFDM
48 nM,5 of 6,GFDLNEYGIS,VIYADGRRTFYSDSVK,GETGGTFDV
28 nM,1 of 6,GETLNSYGIS,VIYSDGMRTFYGDSVK,GRAAGTFDS
9.5 nM,5 of 6,GFTLNSYGIS,VIYSDGRRTFYGDDVK,GKTAGTFDS
410 nM,1 of 6,GKDLDEYGIS,VIYADGKRTHYVENVK,GQFGGTLLD
63 nM,4 of 6,GVTLNEYGIS,VIYSDGRRTFYEDSVK,GEAAGTFDS
610 nM,1 of 6,GFTLNSYGIS,VIYSDGRRTFYGDSVM,TRAAGTFDS
1.2 nM,6 of 6,GFTLNDYGIS,VIYSDGRRTFYGDSVK,GKAAGTFDL
nd,0 of 6,GDSLAEYGIS,VIYADGKRTAYKNKFK,GQVAGYFDV
1.4 nM,6 of 6,GFDLNSYGIS,VIYSDGRRTFYGDSVK,GREAGTFDV
8.5 nM,4 of 6,GFTLNSYGIS,VIYSDGQRTFYDDSVK,GQLAGTFDS
nd,0 of 6,GFTLNEYGIS,VIYSDGRRTFYGDSVK,GRTAGTFMS
nd,0 of 6,GYSLDDYGIS,VIYADGKRTSYAESVK,GNNGGSFMN
nd,0 of 6,GKSLDEYGIS,VIYADGKRTHYVENVK,GQFGGNLLD
1.9 µM,2 of 6,GFTLESYGIS,VIYSDGRRTFYSDSVK,GQGAGTFDS
2.6 nM,6 of 6,GFDLNSYGIS,VIYSDGLRTFYDDSVK,GKAAGTFDS
5.1 nM,5 of 6,GFDLNSYGIS,VIYSDGRRTFYIDSVK,GRWAGTFDS
170 pM,6 of 6,GFDLNEYGIS,VIYADGQRTAYADSVK,GVNAGTFDV
nd,0 of 6,GFDLNSYGIS,VIYSDGRRTFYGDEVK,GRAAAWFNY
nd,0 of 6,GFDLQEYGIS,VIYADGKRTAYIQKVK,GYIVGGQFD
8.6 nM,5 of 6,GFHVNSYGIS,VIYSDGRRTFYADSVK,GRVAGTFDS
320 pM,6 of 6,GFDLNEYGIS,VIYADGMRTVYADSVK,GNNAGTFDI
630 pM,6 of 6,GFDLNEYGIS,VIYADGVRTAYIDSVK,GENAGTFDL
2.5 nM,6 of 6,GFDLNEYGIS,VIYADGKRTAYSDSVK,GETAGTFDT
340 pM,6 of 6,GFDLNEYGIS,VIYADGMRTAYTDDVK,GNVAGTFDM
47 pM,6 of 6,GFDLNEYGIS,VIYADGRRTFYSDSVK,GNVAGTFDV
nd,0 of 6,GDDLAEYGVS,VIYADGKRTKYSDHVK,GENGGFFDL

The last 9 entries again:

CDR-H1,CDR-H2,CDR-H3,Kd,replicates with signal
GFDLNSYGIS,VIYSDGRRTFYGDEVK,GRAAAWFNY,nd,0 of 6
GFDLQEYGIS,VIYADGKRTAYIQKVK,GYIVGGQFD,nd,0 of 6
GFHVNSYGIS,VIYSDGRRTFYADSVK,GRVAGTFDS,8.6 nM,5 of 6
GFDLNEYGIS,VIYADGMRTVYADSVK,GNNAGTFDI,320 pM,6 of 6
GFDLNEYGIS,VIYADGVRTAYIDSVK,GENAGTFDL,630 pM,6 of 6
GFDLNEYGIS,VIYADGKRTAYSDSVK,GETAGTFDT,2.5 nM,6 of 6
GFDLNEYGIS,VIYADGMRTAYTDDVK,GNVAGTFDM,340 pM,6 of 6
GFDLNEYGIS,VIYADGRRTFYSDSVK,GNVAGTFDV,47 pM,6 of 6
GDDLAEYGVS,VIYADGKRTKYSDHVK,GENGGFFDL,nd,0 of 6